Sequences of proteins named here, by UniProt entry; tags and fusion partners are left off.
UniProt P22001, whole entry: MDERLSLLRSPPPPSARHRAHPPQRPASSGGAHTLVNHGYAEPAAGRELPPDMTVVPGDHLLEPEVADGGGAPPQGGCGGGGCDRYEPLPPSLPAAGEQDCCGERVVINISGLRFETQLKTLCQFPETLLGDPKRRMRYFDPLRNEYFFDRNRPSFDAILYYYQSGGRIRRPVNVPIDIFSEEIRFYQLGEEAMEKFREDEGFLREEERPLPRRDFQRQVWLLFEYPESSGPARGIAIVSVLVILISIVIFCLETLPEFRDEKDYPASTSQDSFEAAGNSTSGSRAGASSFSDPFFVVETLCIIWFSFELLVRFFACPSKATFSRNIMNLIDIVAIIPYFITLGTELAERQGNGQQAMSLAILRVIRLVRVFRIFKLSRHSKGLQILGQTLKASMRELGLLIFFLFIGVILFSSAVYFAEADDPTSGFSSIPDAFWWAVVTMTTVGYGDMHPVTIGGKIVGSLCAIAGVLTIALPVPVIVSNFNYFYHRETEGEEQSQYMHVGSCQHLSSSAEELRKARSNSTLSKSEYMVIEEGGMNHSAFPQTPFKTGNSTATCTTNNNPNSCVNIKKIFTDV

In ChEMBL document CHEMBL3608278 (J Med Chem, 2015):

Legend:
[1] = target: T1, Potassium voltage-gated channel subfamily A member 3 (Homo sapiens, UniProt P22001); assay: cell-based; design: species or system Blood
[2] = target: T1, Potassium voltage-gated channel subfamily A member 3; type: cell-based, CHO-K1
[3] = target: T1, Potassium voltage-gated channel subfamily A member 3; design: species or system Blood

| Compound | IC50 [1] | IC50 [2] | IC50 [3] |
| --- | --- | --- | --- |
| CC[C@H](C)[C@@H]1NC(=O)[C@@H](NC(=O)[C@H](CO)NC(=O)[C@@H](N)CCCNC(=N)N)CSSC[C@@H](C(=O)O)NC(=O)[C@H]([C@@H](C)O)NC(=O)CNC(=O)[C@@H]2CSSC[C@@H]3NC(=O)[C@H](CCC(N)=O)NC(=O)[C@H](Cc4ccccc4)NC(=O)[C@H](C)NC(=O)[C@H]([C@@H](C)O)NC(=O)[C@H](CSSC[C@H](NC(=O)[C@H](Cc4ccccc4)NC(=O)[C@H](CO)NC(=O)[C@H](CC(C)C)NC(=O)[C@H](CCCNC(=N)N)NC(=O)[C@H](Cc4ccc(O)cc4)NC(=O)[C@H](CCCCN)NC(=O)[C@H](CCSC)NC(=O)[C@H](CO)NC(=O)[C@H](Cc4cnc[nH]4)NC(=O)[C@H](CCCCN)NC3=O)C(=O)N[C@@H](CCCNC(=N)N)C(=O)N[C@@H](CCCCN)C(=O)N[C@@H]([C@@H](C)O)C(=O)N2)NC(=O)[C@H](CCCCN)NC(=O)[C@H](CO)NC(=O)[C@H](CCCCN)NC(=O)[C@@H]2CCCN2C(=O)[C@H]([C@@H](C)CC)NC(=O)[C@H]([C@@H](C)O)NC(=O)[C@H](CC(=O)O)NC1=O | 0.095 nM | 0.133 nM | 0.252 nM |
| CC[C@H](C)[C@@H]1NC(=O)[C@@H](NC(=O)[C@H](CO)NC(=O)[C@@H](N)CCCNC(=N)N)CSSC[C@@H](C(=O)O)NC(=O)[C@H]([C@@H](C)O)NC(=O)CNC(=O)[C@@H]2CSSC[C@@H]3NC(=O)[C@H](CCC(N)=O)NC(=O)[C@H](Cc4ccccc4)NC(=O)[C@H](C)NC(=O)[C@H]([C@@H](C)O)NC(=O)[C@H](CSSC[C@H](NC(=O)[C@H](Cc4ccccc4)NC(=O)[C@H](CO)NC(=O)[C@H](CC(C)C)NC(=O)[C@H](CCCNC(=N)N)NC(=O)[C@H](Cc4ccc(O)cc4)NC(=O)[C@H](CCCCN)NC(=O)[C@H](CCSC)NC(=O)[C@H](C)NC(=O)[C@H](Cc4cnc[nH]4)NC(=O)[C@H](CCCCN)NC3=O)C(=O)N[C@@H](CCCNC(=N)N)C(=O)N[C@@H](CCCCN)C(=O)N[C@@H]([C@@H](C)O)C(=O)N2)NC(=O)[C@H](CCCNC(=N)N)NC(=O)[C@H](CO)NC(=O)[C@H](CCCCN)NC(=O)[C@@H]2CCCN2C(=O)[C@H]([C@@H](C)CC)NC(=O)[C@H]([C@@H](C)O)NC(=O)[C@H](CC(=O)O)NC1=O | 0.251 nM | – | 0.809 nM |
| CC[C@H](C)[C@@H]1NC(=O)[C@@H](NC(=O)[C@H](CO)NC(=O)[C@@H](N)CCCNC(=N)N)CSSC[C@@H](C(=O)O)NC(=O)[C@H]([C@@H](C)O)NC(=O)CNC(=O)[C@@H]2CSSC[C@@H]3NC(=O)[C@H](CCC(N)=O)NC(=O)[C@H](Cc4ccccc4)NC(=O)[C@H](C)NC(=O)[C@H](Cc4cccc5ccccc45)NC(=O)[C@H](CSSC[C@H](NC(=O)[C@H](Cc4ccccc4)NC(=O)[C@H](CO)NC(=O)[C@H](CC(C)C)NC(=O)[C@H](CCCNC(=N)N)NC(=O)[C@H](Cc4ccc(O)cc4)NC(=O)[C@H](CCCCN)NC(=O)[C@H](CCSC)NC(=O)[C@H](CO)NC(=O)[C@H](Cc4cnc[nH]4)NC(=O)[C@H](CCCCN)NC3=O)C(=O)N[C@@H](CCCNC(=N)N)C(=O)N[C@@H](CCCCN)C(=O)N[C@@H]([C@@H](C)O)C(=O)N2)NC(=O)[C@H](CCCNC(=N)N)NC(=O)[C@H](CO)NC(=O)[C@H](CCCCN)NC(=O)[C@@H]2CCCN2C(=O)[C@H]([C@@H](C)CC)NC(=O)[C@H]([C@@H](C)O)NC(=O)[C@H](CC(=O)O)NC1=O | 3.56 nM | – | 4.86 nM |
| CC[C@H](C)[C@@H]1NC(=O)[C@@H](NC(=O)[C@H](CO)NC(=O)[C@@H](N)CCCNC(=N)N)CSSC[C@@H](C(N)=O)NC(=O)[C@H]([C@@H](C)O)NC(=O)CNC(=O)[C@@H]2CSSC[C@@H]3NC(=O)[C@H](CCCCN)NC(=O)[C@H](Cc4ccccc4)NC(=O)[C@H](C)NC(=O)[C@H]([C@@H](C)O)NC(=O)[C@H](CSSC[C@H](NC(=O)[C@H](Cc4ccccc4)NC(=O)[C@H](CO)NC(=O)[C@H](CC(C)C)NC(=O)[C@H](CCCNC(=N)N)NC(=O)[C@H](Cc4ccc(O)cc4)NC(=O)[C@H](CCCCN)NC(=O)[C@H](CCSC)NC(=O)[C@H](CO)NC(=O)[C@H](Cc4cnc[nH]4)NC(=O)[C@H](CCCCN)NC3=O)C(=O)N[C@@H](CCCNC(=N)N)C(=O)N[C@@H](CCCCN)C(=O)N[C@@H]([C@@H](C)O)C(=O)N2)NC(=O)[C@H](CCCNC(=N)N)NC(=O)[C@H](CO)NC(=O)[C@H](CCCCN)NC(=O)[C@@H]2CCCN2C(=O)[C@H]([C@@H](C)CC)NC(=O)[C@H]([C@@H](C)O)NC(=O)[C@H](CC(=O)O)NC1=O | 0.223 nM | – | 0.278 nM |
| CC[C@H](C)[C@@H]1NC(=O)[C@@H](NC(=O)[C@H](CO)NC(=O)[C@@H](N)CCCNC(=N)N)CSSC[C@@H](C(=O)O)NC(=O)[C@H]([C@@H](C)O)NC(=O)CNC(=O)[C@@H]2CSSC[C@@H]3NC(=O)[C@H](CCC(N)=O)NC(=O)[C@H](Cc4ccccc4)NC(=O)[C@H](C)NC(=O)[C@H]([C@@H](C)O)NC(=O)[C@H](CSSC[C@H](NC(=O)[C@H](Cc4ccccc4)NC(=O)[C@H](CO)NC(=O)[C@H](CC(C)C)NC(=O)[C@H](CCCNC(=N)N)NC(=O)[C@H](Cc4ccc(O)cc4)NC(=O)[C@H](CCCCN)NC(=O)[C@H](CCSC)NC(=O)[C@H](CO)NC(=O)[C@H](Cc4cnc[nH]4)NC(=O)[C@H](CCCCN)NC3=O)C(=O)N[C@@H](CCCNC(=N)N)C(=O)N[C@@H](CCCCN)C(=O)N[C@@H]([C@@H](C)O)C(=O)N2)NC(=O)[C@H](CCCNC(=N)N)NC(=O)[C@H](CO)NC(=O)[C@H](CCCCN)NC(=O)[C@H](CCCCN)NC(=O)[C@H]([C@@H](C)CC)NC(=O)[C@H]([C@@H](C)O)NC(=O)[C@H](CC(=O)O)NC1=O | 0.154 nM | – | 0.975 nM |
| CC[C@H](C)[C@@H]1NC(=O)[C@@H](NC(=O)[C@H](CO)NC(=O)[C@@H](N)CCCNC(=N)N)CSSC[C@@H](C(=O)O)NC(=O)[C@H]([C@@H](C)O)NC(=O)CNC(=O)[C@@H]2CSSC[C@@H]3NC(=O)[C@H](CCC(N)=O)NC(=O)[C@H](Cc4ccccc4)NC(=O)[C@H](C)NC(=O)[C@H]([C@@H](C)O)NC(=O)[C@H](CSSC[C@H](NC(=O)[C@H](Cc4ccccc4)NC(=O)[C@H](CO)NC(=O)[C@H](CC(C)C)NC(=O)[C@H](CCCNC(=N)N)NC(=O)[C@H](Cc4ccc(O)cc4)NC(=O)[C@H](CCCCN)NC(=O)[C@H](CCSC)NC(=O)[C@H](CO)NC(=O)[C@H](Cc4cnc[nH]4)NC(=O)[C@H](CCCCN)NC3=O)C(=O)N[C@@H](CCCNC(=N)N)C(=O)N[C@@H](CCCCN)C(=O)N[C@@H]([C@@H](C)O)C(=O)N2)NC(=O)[C@H](C)NC(=O)[C@H](CO)NC(=O)[C@H](CCCCN)NC(=O)[C@@H]2CCCN2C(=O)[C@H]([C@@H](C)CC)NC(=O)[C@H]([C@@H](C)O)NC(=O)[C@H](CC(=O)O)NC1=O | 0.881 nM | – | 2.15 nM |
